Source: paper PMC6928721, “Evaluation of the Reactivity and Receptor Competition of HLA-G Isoforms toward Available Antibodies: Implications of Structural Characteristics of HLA-G Isoforms” (International Journal of Molecular Sciences, 2019)

Tests used:
[1] = target: T1, disulfide-linked HLA-G1 homodimer (ectodomain: heavy chain α1-α2-α3 domains, β2m and peptide …) (human | ); assay: SPR; Biacore T200; G233 immobilised on a CM5 chip, HLA-G1 dimer captured on it, 0.8-12.5 µM LILRB1 injected; equilibrium binding analysis, one to one Langmuir fit; conditions: both partners purified
[2] = target: T1, disulfide-linked HLA-G1 homodimer …; assay: SPR; Biacore T200; MEM-G9 immobilised on a CM5 chip, HLA-G1 dimer captured on it, 0.8-12.5 µM LILRB1 injected; equilibrium binding analysis, one to one Langmuir fit; conditions: both partners purified

B1: LILRB1 (leukocyte immunoglobulin-like receptor B1), N-terminal domains 1 and 2 of the extracellular domain (domain or fragment)
chain: GHLPKPTLWAEPGSVITQGSPVTLRCQGGQETQEYRLYREKKTALWITRIPQELVKKGQFPIPSITWEHAGRYRCYYGSDTAGRSESSDPLELVVTGAYIKPTLSAQPSPVVNSGGNVILQCDSQVAFDGFSLCKEGEDEHPQCLNSQPHARGSSRAIFSVGPVSPSRRWWYRCYAYDSNSPYEWSLPSDLLELLVLG
What does the source list for B1?
Kd [1]: 2500 nM; Kd [2]: 1500 nM
